# Patent US20220127335A1, “TETRAMERIC PROTEIN SCAFFOLDS AS NANO-CARRIERS OF THERAPEUTIC PEPTIDES FOR TREATING CANCER AND OTHER DISEASES” (UNIVERSITY OF MARYLAND, BALTIMORE, priority 2019, published 2022)
# Sequences of proteins named here, by UniProt entry; tags and fusion partners are left off. Residues count along the entry.
# UniProt Q00987, 25-109 limits assumed: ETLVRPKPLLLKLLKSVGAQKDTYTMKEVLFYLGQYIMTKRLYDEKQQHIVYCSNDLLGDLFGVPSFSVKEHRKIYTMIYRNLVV
# UniProt Q00987, 26-109 limits assumed: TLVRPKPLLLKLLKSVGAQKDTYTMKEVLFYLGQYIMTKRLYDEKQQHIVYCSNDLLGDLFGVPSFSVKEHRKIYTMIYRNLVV
# B1: ^PMIBcr/Abl-R6 (designed binder)
# chain: MVDPTSFAEYWALLSPDSEPPRMELRSVGDIEQELERAKASIRRLEQEVNQERFRMIYLQTLLAKEKKSYDRRRRRRR
# notes: Bcr/Abl tetramerization domain with PMI grafted in place of residues 5-16 and a C-terminal Arg hexapeptide (R6); 78 residues, chemically synthesized by native chemical ligation; Exists as a tetramer in aqueous buffer
# B2: Bcr/Abl-R6 (other)
# chain: B1 chain with T5V, S6G, Y10A, A12K, L13A, L14Q, S15F
# notes: Negative control scaffold without the PMI graft: Bcr/Abl tetramerization domain with C-terminal R6; Chemically synthesized; tetramer in aqueous buffer
# Experiments:
# [1] = Immunogenicity: IL-2, TNF-α and EPO in blood (ELISA); format: in vivo, C57BL/6 mice; details: 5 mg/Kg subcutaneous every other day, three weeks
# Procedure: (§1) PBS was used as a negative control for mock treatment; IL-2 in the blood collected at the end of the treatment were quantified by ELISA kits (R&D Systems) using protein standards from Sigma-Aldrich. The data from each group are presented as the mean±SD (n=6), and statistical analysis was performed using T-test, * standing for p<0.05, *** for p<0.001, and **** for p<0.0001.
# as §1, with “TNF-α” for “IL-2”
# as §1, with “EPO” for “IL-2”
# Immunogenicity of peptide/protein therapeutics often impedes their clinical use. […] IL-2 and TNF-α were used as markers because T cell responses are known to play a critical role in the development of immunogenic responses to therapeutic peptides and proteins. Since biotherapeutics can potentially generate cross-reactive neutralizing antibodies that inhibit endogenous proteins such as EPO, leading to anemia known as antibody-mediated pure red-cell aplasia, EPO was also used as a marker for immunogenicity in the study.
# [2] = biological target: T1, MDM2 (p53-binding domain) (UniProt Q00987 25-109, limits assumed); assay: ITC, stoichiometry
# T1 construct: The ITC legends say only 'MDM2'
# [3] = biological target: T1, MDM2 (p53-binding domain); assay: ITC, entropy of binding
# [4] = biological target: T1, MDM2 (p53-binding domain); assay: ITC, enthalpy of binding
# [5] = test system: HCT116 p53^+/+ xenograft tumors; assay: Tumor growth inhibition in nude mouse xenograft model; format: in vivo, BALB/c nude mice; details: same dose of 5 mg/Kg; from molecular mass ratio
# [6] = test system: p53, p21 and Ki-67 in tumor tissues; assay: Immunohistochemical staining of tumor tissues (p53, p21, Ki-67); format: in vivo, BALB/c nude mice; details: after three-week treatment, 5 mg/Kg
# Procedure: Prepared tissue sections at 5 μm thickness were incubated with various antibodies at 4° C. overnight, and subsequently stained using the Labeled Streptavidin-Biotin (LSAB) staining method. Each stained section was evaluated by a minimum of 10 randomly selected ×20 high-power fields for further statistical analysis.
# FIG. 7H is the statistical analysis of IHC scores. A numeric score ranging from 0 to 3 was used to evaluate immunostaining intensity (I): 0, no staining; 1, weak staining; 2, moderate staining; 3, strong staining. To evaluate immunostaining area (A), a numeric score ranging from 1 to 4 was used: 1, positive area<10%; 2, 10%<positive area<50%; 3, 50%<positive area<90%; 4, positive area>90%. The total score, I×A, was calculated accordingly, and statistical analysis was performed using T-test, * standing for p<0.05.
# Taken together, the in vivo data unequivocally validates the design of ^PMIBcr/Abl-R6 as a potent antitumor agent that inhibits tumor growth in a p53-dependent fashion.
# [7] = biological target: T1, MDM2 (p53-binding domain); assay: ITC, 80 µM protein injected into 8 µM MDM2, 25° C., 20 mM Tris/HCl pH 7.4; ITC, 25 C, 80 uM protein and 8 uM MDM2
# [8] = biological target: p53-binding domain of MDM2 (Homo sapiens, UniProt Q00987); assay: Binding affinity for MDM2 by isothermal titration calorimetry (ITC); details: 25° C., 20 mM Tris/HCl, pH 7.4
molecule,measurement,setting,value
"CC(C)C[C@H](NC(=O)[C@H](C)NC(=O)[C@H](Cc1c[nH]c2ccccc12)NC(=O)[C@H](Cc1ccc(O)cc1)NC(=O)[C@H](CCC(=O)O)NC(=O)[C@H](C)NC(=O)[C@H](Cc1ccccc1)NC(=O)[C@H](CO)NC(=O)[C@@H](N)[C@@H](C)O)C(=O)N[C@@H](CC(C)C)C(=O)N[C@@H](CO)C(=O)N1CCC[C@H]1C(=O)O [PMI, reference compound]",EPO level in the blood,[1],decreased
same,IL-2 level in the blood,[1],noticeably increased
same,TNF-α level in the blood,[1],noticeably increased
B1,N,[2],0.987
same,ΔS,[3],2.33 cal/mol/deg
same,ΔH,[4],-9.21 kcal/mol
same,"activity relative to Nutlin-3 on molar basis, as a monomer",[5],at least 16 fold
same,"activity relative to Nutlin-3 on molar basis, as a tetramer",[5],≥ 64 fold
same,expression of Ki-67 in tumor tissues (IHC),[6],decreased
same,expression of p53 and p21 in tumor tissues (IHC),[6],significantly increased
same,EPO level in the blood,[1],only slight changes
same,IL-2 level in the blood,[1],only slight changes
same,TNF-α level in the blood,[1],only slight changes
same,Kd,[7],32 nM
B2,binding affinity (KD) for MDM2,[8],No binding was detected

# Substitutions are numbered along the chain they refer to.
